This is a selection; strong and weak results do not stand in their true shares. Calls of active or inactive are those of the source. Rule as the data show it: active = inhibition above about 30%; inconclusive = no clear call, values can overlap the other calls; inactive = below that.

Sequences of proteins named here, by UniProt entry; tags and fusion partners are left off.
UniProt P25090, whole entry: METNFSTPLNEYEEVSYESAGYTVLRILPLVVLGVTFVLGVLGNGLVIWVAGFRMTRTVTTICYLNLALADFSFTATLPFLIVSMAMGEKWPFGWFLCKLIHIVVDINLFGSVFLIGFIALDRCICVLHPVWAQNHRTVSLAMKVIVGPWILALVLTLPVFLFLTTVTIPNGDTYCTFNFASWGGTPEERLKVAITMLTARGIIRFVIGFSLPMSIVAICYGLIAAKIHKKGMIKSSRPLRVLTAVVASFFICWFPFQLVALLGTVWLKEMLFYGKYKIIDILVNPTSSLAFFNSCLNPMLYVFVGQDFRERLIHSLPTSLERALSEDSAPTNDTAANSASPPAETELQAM

The assay has as its target N-formyl peptide receptor 2 (Homo sapiens) (UniProt P25090). In words: small molecules displacing FPRL1 fluorescent ligand – cell-based, FPR counter-screen, flow cytometry, primary screen (AID 441).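 Also: 0% = buffer alone and 100% = receptor blocker peptide.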 As to conditions: FPRL1-expressing cells, fluorescent ligand binding inhibition, active compounds read high, concentration not given here.
Turning to `Clc1n[nH]nc1-c1nn[nH][15n]1`, the inhibition is inactive: 7.4%. Then `Cc1nn(-c2ccccc2)c2c1P(=O)(N1CCOCC1)N(C)C(c1ccccc1)=N2` (centres undefined), with inactive: 4.3%. For `CCOP1(=S)c2c(C)nn(CCC#N)c2N=C(c2ccccc2F)N1C` (centres undefined), the inhibition is inactive: 2.4%. Then `Cc1ccc(C)c(NP(C)(=O)Oc2ccccc2)c1` (centres undefined), with inactive: -1.2%; and `CP(=S)(Nn1cnnc1)Oc1ccccc1` (centres undefined), with inactive: -0.1%; and `O=C(COc1ccccc1)OC1CN2CCC1CC2` (centres undefined), with inactive: -1%. Then `COP1(=S)c2c(C)nn(CCC#N)c2N=C(c2ccc(F)cc2)N1C` (centres undefined), with inactive: -1.1%. In the case of `CCc1nc2c(n1)c1c(non1O)c1c2no[n+]1[O-]`, the inhibition is inactive: 7.6%. For `Cc1nc2ccc3ccccc3c2o1.O=[N+]([O-])c1cc([N+](=O)[O-])c(O)c([N+](=O)[O-])c1`, the inhibition was inactive: 8.6%.

`CP(=O)(Nc1ccccn1)Oc1ccccc1` (centres undefined): the inhibition was inactive: 2%. For the compound `CN(C)CCOC(=O)C(O)(c1ccccc1)C1CCCCC1` (centres undefined), the inhibition is active: 54%. With `Cc1ccccc1NP(C)(=O)Nc1ccccc1C` the figure was inactive: 6.8%.

Take `CP(=O)(Nc1ccc2c(c1)OCCO2)Oc1ccccc1` (centres undefined): the inhibition is inactive: -2.5%.

Consider `O=P(Nc1nccs1)(c1ccccc1)c1ccccc1`, for which the inhibition was inactive: -4.1%.

Source of the values: PubChem BioAssay AID441 (NMMLSC, 2006).
